{
  "source": "patent US6841359",
  "key": {"streptavidin [1]": {"target": "streptavidin (UniProt P22629)", "experiment": "Biacore SPR, calculated from the association and dissociation rates"}, "streptavidin [2]": {"target": "streptavidin (UniProt P22629)", "experiment": "Biacore SPR, fusion protein immobilized by amine coupling, pulse of 23, 11.5 or 5.75 µM streptavidin"}, "streptavidin [3]": {"target": "streptavidin (UniProt P22629)", "experiment": "Biacore SPR, fusion protein immobilized by amine coupling, streptavidin 0.05-1.6 µM in flow"}},
  "data": [
    {"substance": "SB19-C4 streptavidin-binding fusion protein of maltose-binding protein, first 38 amino acids of SB19-C4 and hexahistidine tag (other; other documents disagree on this pair)", "values": [
      {"measurement": "Kd", "setting": "streptavidin [1]", "value": "< 40", "unit": "nM"},
      {"measurement": "koff", "setting": "streptavidin [2]", "value": "< 0.002", "unit": "s⁻¹"},
      {"measurement": "kon", "setting": "streptavidin [3]", "value": 50000, "unit": "M⁻¹ s⁻¹"}
    ]}
  ]
}
